Assay [1] deals with CAIII (Homo sapiens, UniProt P07451). In words: fluorescent thermal shift assay (FTSA). The format is binding. Particulars: FTSA at 37 °C and pH 7.0, read-out: Kd_app.
Assay [2] has as its target CAVII (Homo sapiens, UniProt P43166). In words: fluorescent thermal shift assay (FTSA). The assay is classed as binding. The settings on record: FTSA at 37 °C and pH 7.0, read-out: Kd_app.
Assay [3] addresses CA IV (Homo sapiens, UniProt P22748). The settings on record: pH 7.
For assay [4], the target named is CA VA (Homo sapiens, UniProt P35218). Particulars: pH 7.
Assay [5] addresses CAII (Homo sapiens, UniProt P00918). Particulars: pH 7.
In assay [6] the target is CA VB (Homo sapiens, UniProt Q9Y2D0). In words: fluorescent thermal shift assay (FTSA). The assay is classed as binding. Particulars: FTSA at 37 °C and pH 7.0, read-out: Kd_app.

Chains of the proteins cited; added tags and fusions are not shown. Lines headed by an entry give the natural chain unless they say otherwise; changes in a name come on top. Residues count along the entry.
UniProt P07451: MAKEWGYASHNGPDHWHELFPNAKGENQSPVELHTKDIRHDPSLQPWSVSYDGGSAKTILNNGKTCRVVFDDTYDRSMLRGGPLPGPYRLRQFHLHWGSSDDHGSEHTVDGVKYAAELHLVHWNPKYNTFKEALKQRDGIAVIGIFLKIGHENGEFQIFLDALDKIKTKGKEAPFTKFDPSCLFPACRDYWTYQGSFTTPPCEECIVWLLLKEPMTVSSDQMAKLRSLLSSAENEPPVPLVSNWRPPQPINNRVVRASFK
UniProt P43166: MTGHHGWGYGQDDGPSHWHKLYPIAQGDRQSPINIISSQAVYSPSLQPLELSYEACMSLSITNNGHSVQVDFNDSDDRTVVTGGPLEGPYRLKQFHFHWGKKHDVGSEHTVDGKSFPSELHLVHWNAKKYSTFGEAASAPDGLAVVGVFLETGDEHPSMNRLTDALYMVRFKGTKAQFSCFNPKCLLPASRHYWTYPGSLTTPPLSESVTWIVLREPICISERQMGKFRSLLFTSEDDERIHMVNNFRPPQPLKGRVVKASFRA
UniProt P22748, 19-284: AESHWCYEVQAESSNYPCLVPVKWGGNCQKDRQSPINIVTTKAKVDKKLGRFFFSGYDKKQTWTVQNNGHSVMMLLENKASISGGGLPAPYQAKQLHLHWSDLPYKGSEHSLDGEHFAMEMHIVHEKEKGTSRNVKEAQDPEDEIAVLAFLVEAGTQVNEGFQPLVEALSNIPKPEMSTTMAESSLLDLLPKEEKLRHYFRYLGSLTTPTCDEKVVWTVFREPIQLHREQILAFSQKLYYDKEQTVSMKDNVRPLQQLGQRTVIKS
UniProt P35218, 39-305: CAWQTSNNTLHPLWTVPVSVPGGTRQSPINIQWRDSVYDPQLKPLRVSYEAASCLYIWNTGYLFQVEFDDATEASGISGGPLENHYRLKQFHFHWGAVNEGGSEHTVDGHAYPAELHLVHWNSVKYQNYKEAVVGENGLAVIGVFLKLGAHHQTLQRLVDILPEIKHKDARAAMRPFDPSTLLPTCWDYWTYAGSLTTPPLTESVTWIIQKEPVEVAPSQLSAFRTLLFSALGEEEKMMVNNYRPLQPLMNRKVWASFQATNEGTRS
UniProt Q9Y2D0, 34-317: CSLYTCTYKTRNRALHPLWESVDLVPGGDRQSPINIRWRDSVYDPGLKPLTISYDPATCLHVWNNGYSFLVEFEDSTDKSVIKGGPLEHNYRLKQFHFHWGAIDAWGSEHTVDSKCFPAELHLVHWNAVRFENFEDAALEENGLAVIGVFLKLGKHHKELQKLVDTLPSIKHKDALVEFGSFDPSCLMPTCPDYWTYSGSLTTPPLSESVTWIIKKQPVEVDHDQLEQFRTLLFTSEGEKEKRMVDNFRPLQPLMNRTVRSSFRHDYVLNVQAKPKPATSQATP

This passage reports Kd results from EP4512396A1, “TARGETED COVALENT INHIBITORS FOR CARBONIC ANHYDRASES” (Vilnius University, priority 2023, dated 2025).

As to `CC(=O)OCCSc1c(F)c(F)c(S(N)(=O)=O)c(F)c1F` [AV19-36, 2-((2,3,5,6-tetrafluoro-4-sulfamoylphenyl)thio)ethyl acetate], the Kd in assay [1] is 50000 nM; in assay [2], 5 nM.

For the compound `CCC(=O)OCCS(=O)(=O)c1c(F)c(F)c(S(N)(=O)=O)c(F)c1F` [AV21-03-2, 2-((2,3,5,6-tetrafluoro-4-sulfamoylphenyl)sulfonyl)ethyl propionate], the Kd in assay [1] worked out at 40000 nM; in assay [3], 2 nM; in assay [2] it was 0.002 nM.

Take `CCC(=O)OCCS(=O)(=O)c1c(F)c(F)c(S(N)(=O)=O)c(F)c1NC1CCCCCCC1` [AV21-08, 2-((2-(cyclooctylamino)-3,5,6-trifluoro-4-sulfamoylphenyl)sulfonyl)ethyl propionate]: the Kd in assay [4] is 1000 nM.

As for `CC(=O)OCCS(=O)(=O)c1c(F)c(F)c(S(N)(=O)=O)c(F)c1NC1CCCCCCCCCCC1` [AV21-47, 2-((2-(cyclododecylamino)-3,5,6-trifluoro-4-sulfamoylphenyl)sulfonyl)ethyl acetate], the Kd in assay [3] came to 0.2 nM; in assay [5], 1 nM; in assay [4], 5000 nM.

With `C=CS(=O)(=O)c1c(F)c(F)c(S(N)(=O)=O)c(F)c1F` [AV22-48, 2,3,5,6-tetrafluoro-4-(vinylsulfonyl)benzenesulfonamide], the Kd in assay [6] was 0.01 nM; in assay [4] it was 1 nM.

As for `CCC(=O)OCCS(=O)(=O)c1c(F)c(F)c(S(N)(=O)=O)c(F)c1NC1CCCCCCCCCCC1` [AV22-132, 2-((2-(cyclododecylamino)-3,5,6-trifluoro-4-sulfamoylphenyl)sulfonyl)ethyl propionate], the Kd was found to be 4 nM in assay [3], 0.2 nM in assay [6] and 2 nM in assay [5].

For `NS(=O)(=O)c1c(F)c(F)c(S(=O)(=O)CCOC(=O)Nc2ccccc2)c(F)c1F` [AV22-138-1, 2-((2,3,5,6-tetrafluoro-4-sulfamoylphenyl)sulfonyl)ethyl phenylcarbamate], in assay [6], the Kd turned out to be 0.005 nM.

Turning to `COc1ccc(NC(=O)OCCS(=O)(=O)c2c(F)c(F)c(S(N)(=O)=O)c(F)c2F)cc1` [AV23-04, 2-((2,3,5,6-tetrafluoro-4-sulfamoylphenyl)sulfonyl)ethyl (4-methoxyphenyl)carbamate], the figures for the Kd in assay [3], in assay [2] and in assay [5] were 20 nM, 0.4 nM and 0.3 nM, respectively.
